Activation data for 30 compounds are collected here from PubChem BioAssay AID697 (Columbia University Molecular Screening Center, 2007).

Sequences of proteins named here, by UniProt entry; tags and fusion partners are left off.
UniProt Q9Y2R2, whole entry: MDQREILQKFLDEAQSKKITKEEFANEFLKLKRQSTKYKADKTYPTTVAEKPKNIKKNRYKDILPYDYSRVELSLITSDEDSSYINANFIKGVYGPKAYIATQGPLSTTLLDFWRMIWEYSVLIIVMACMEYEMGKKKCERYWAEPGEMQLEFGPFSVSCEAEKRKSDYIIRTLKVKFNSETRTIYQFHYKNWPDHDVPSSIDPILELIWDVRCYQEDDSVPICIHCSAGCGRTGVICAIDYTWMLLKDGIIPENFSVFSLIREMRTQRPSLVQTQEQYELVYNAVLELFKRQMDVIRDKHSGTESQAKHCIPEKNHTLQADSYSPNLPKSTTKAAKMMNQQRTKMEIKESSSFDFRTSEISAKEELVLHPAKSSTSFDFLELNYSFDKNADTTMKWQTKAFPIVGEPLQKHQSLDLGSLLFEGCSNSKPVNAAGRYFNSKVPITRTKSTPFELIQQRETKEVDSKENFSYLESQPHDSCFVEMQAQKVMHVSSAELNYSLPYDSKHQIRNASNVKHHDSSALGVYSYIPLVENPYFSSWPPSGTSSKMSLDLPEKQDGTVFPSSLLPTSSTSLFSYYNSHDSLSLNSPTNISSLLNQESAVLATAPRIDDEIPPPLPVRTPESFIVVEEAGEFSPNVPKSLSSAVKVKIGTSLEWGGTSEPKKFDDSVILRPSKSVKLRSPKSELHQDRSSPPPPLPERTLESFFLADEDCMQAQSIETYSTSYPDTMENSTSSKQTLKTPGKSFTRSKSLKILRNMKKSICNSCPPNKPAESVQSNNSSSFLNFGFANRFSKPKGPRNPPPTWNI

Only a part is listed here, and it is no random draw. Activity calls are given as the source filed them.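 Rule for the calls: active = activation at 2 µM above a set limit, the mean plus 5 SD (cut at about 37% in these data); inactive = the rest.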

This test has as its target Tyrosine-protein phosphatase non-receptor type 22 (Homo sapiens) (UniProt Q9Y2R2). Description: enhancers of human PTPN22 catalytic activity – biochemical, DiFMUP fluorescence, 2 µM, primary screen (AID 697). The conditions noted are these: recombinant LYP, at 2 µM, stronger effect = higher value, 0 = plate median, 100 = signal doubled.
As to `COc1ccccc1OP(C)(=O)Nc1c(C)cccc1C` (stereo not given), the activation is inactive: 17.3%.
Then `Cc1nc2ccc3ccccc3c2s1.O=[N+]([O-])c1cc([N+](=O)[O-])c(O)c([N+](=O)[O-])c1`, with inactive: -4.7%; and `Cc1ccc(C)c(NP(C)(=O)Oc2ccccc2)c1` (stereo not given), with inactive: -13.3%.
As to `Cc1cc(C)cc(OP(C)(=O)Nc2ccccn2)c1` (stereo not given), the activation was inactive: 0.1%.
To `Cc1cc(C)cc(OP(C)(=O)Nc2ccc(C)cc2C)c1` (stereo not given) belongs inactive: 6%.
Then `COc1ccc(OP(C)(=O)Nc2cccc(F)c2)cc1` (stereo not given), with inactive: -2%; and `CP(=O)(Nc1ccccn1)Oc1ccc(Cl)cc1` (stereo not given), with inactive: -2.7%; and `CP(=O)(NC(=O)Nc1ccccc1)Oc1ccccc1` (stereo not given), with inactive: 7.1%.
To `CP(=S)(Nn1cnnc1)Oc1ccccc1` (stereo not given) belongs inactive: -5.8%.
With `CP(=O)(OC12CC3CC(CC(C3)C1)C2)OC12CC3CC(CC(C3)C1)C2`, the activation was inactive: 9.6%.
To `CC(C)(C)c1ccc(OP(C)(=O)O)cc1` belongs inactive: -2.1%.
For the compound `CP(=O)(Nc1ccc(Cl)cc1)Oc1ccc(F)cc1` (stereo not given), the activation is inactive: 2.6%.
Take `COc1ccccc1OP(C)(=O)Nc1c(C)n(C)n(-c2ccccc2)c1=O` (stereo not given): the activation was inactive: 5.4%.
To `CP(=O)(Oc1ccccc1)N1CCOC1=O` (stereo not given) belongs inactive: -10.9%.
`CCN(CC)CC(O)COC(=O)C(O)(c1ccccc1)C1CCCCC1` (stereo not given): the activation was inactive: -4.2%.
For `CP(=O)(Nc1ccccn1)Oc1ccccc1` (stereo not given), the activation is inactive: 4.3%.
To `COc1ccccc1OP(C)(=O)Nc1ccc(C)cc1C` (stereo not given) belongs inactive: 2.7%.
Turning to `CCc1ccc(OP(C)(=O)O)cc1`, the activation was inactive: -0.6%.
Consider `Cc1c(NP(C)(=O)Oc2ccc(C(C)C)cc2)c(=O)n(-c2ccccc2)n1C` (stereo not given), for which the activation was inactive: -3.6%.
Then `COc1ccc(OP(C)(=O)Nc2ccccn2)cc1` (stereo not given), with inactive: -1%; and `CN(C)CCOC(=O)C(O)(c1ccccc1)C1CCCC1` (stereo not given), with inactive: 13.6%; and `Cc1nc2ccc3ccccc3c2o1.O=[N+]([O-])c1cc([N+](=O)[O-])c(O)c([N+](=O)[O-])c1`, with inactive: 6.2%.
In the case of `COc1ccccc1OP(C)(=O)Nc1ccc(C)c(C)c1` (stereo not given), the activation is inactive: -2.9%.
To `CP(=O)(Nc1ccccc1)Oc1ccc(F)cc1` (stereo not given) belongs inactive: -5.4%; to `CCN(CC)CCCOC(=O)C(O)(c1ccccc1)C1CCCCC1` (stereo not given), inactive: -3.3%; to `CP(=O)(Nc1ccccc1F)Oc1ccccc1` (stereo not given), inactive: 0.2%.
Consider `CP(=O)(Nc1ccc2c(c1)OCCO2)Oc1ccccc1` (stereo not given), for which the activation is inactive: 12.3%.
To `CCOP(C)(=S)SCC(=O)NC(C)(CC)C(=O)O` (stereo not given) belongs inactive: 3.8%; to `CN(C)CCOC(=O)C(O)(c1ccccc1)C1CCCCC1` (stereo not given), inactive: 0.4%.
As for `COc1ccc(OP(C)(=O)Nc2cccc(Br)c2)cc1` (stereo not given), the activation was inactive: -5.3%.
